Read-outs that look alike come from different tables or passages of the source.
Columns and labels:
[1] = tested on: carrier in tumor; assay: membrane transport by carrier in tumor; type: cell-based; settings: dAM and MTX
[2] = tested on: P815 ascites
[3] = tested on: Ehrlich ascites
[4] = tested on: L1210 leukemia; assay: L1210 leukemia in BD (2) F1 female mice, i.p., 10-alkyl derivatives (Example 9, Table II); settings: every two days times five
[5] = tested on: L1210 leukemia; assay: L1210 leukemia in BD (2) F1 female mice, i.p., increase in median life span (Example 8, Table I); settings: three times per week

CN(Cc1cnc2nc(N)nc(N)c2n1)c1ccc(C(=O)N[C@@H](CCC(=O)O)C(=O)O)cc1 [Methotrexate]
competition for carrier mechanism [1]: compete for the same carrier mechanism
ILS (increased life span) ([2]; 6 mg/kg s.c. every 2 days × 5): 75.0%
ILS (increased life span) ([2]; 9 mg/kg s.c. every 2 days × 5): 100.3%
ILS (increased life span) ([2]; 12 mg/kg s.c. every 2 days × 5): 109.1%
Maximum ILS ([2]; against P815, s.c., q2d×5): +103%
ILS (increased life span) ([3]; 6 mg/kg s.c. every 2 days × 5): 15.1%
ILS (increased life span) ([3]; 9 mg/kg s.c. every 2 days × 5): 20.9%
ILS (increased life span) ([3]; 12 mg/kg s.c. every 2 days × 5): 17.0%
Maximum ILS ([3]; against Ehrlich, s.c., q2d×5): +19%
AST ([4]; 6 mg/kg i.p.): 13.8 ± 1.2 days
ILS ([4]; 6 mg/kg i.p.): +105%
AST ([4]; 9 mg/kg i.p.): 15.8 ± 1.7 days
ILS ([4]; 9 mg/kg i.p.): +135%
AST ([4]; 12 mg/kg i.p.): 16.9 ± 1.5 days
ILS ([4]; 12 mg/kg i.p.): +149%
AST ([4]; 18 mg/kg i.p.): 17.3 ± 1.8 days
ILS ([4]; 18 mg/kg i.p.): +158%
AST ([4]; 24 mg/kg i.p.): 15.3 ± 2.1 days
ILS ([4]; 24 mg/kg i.p.): +127%
Increased life span ([5]; 0.75 mg/kg i.p.): 46.0%
Median life span ([5]; 0.75 mg/kg i.p.): 9.9 ± 1.0 days
Increased life span ([5]; 1.5 mg/kg i.p.): 86.5%
Median life span ([5]; 1.5 mg/kg i.p.): 12.7 ± 1.8 days
Increased life span ([5]; 3.0 mg/kg i.p.): 152.8%
Median life span ([5]; 3.0 mg/kg i.p.): 17.5 ± 2.9 days
Increased life span ([5]; 6.0 mg/kg i.p.): 169.0%
Median life span ([5]; 6.0 mg/kg i.p.): 18.3 ± 3.5 days

Source: patent US4433147A, “Process for preparing 10-deazaminopterins” (priority 1982, dated 1984)
